Screening results: PubChem, several laboratories
Shown are actives, neighbours in structure and some others; about 2.1% of the full set was active somewhere.
Yeast UUG start: modulators of yeast start codon fidelity, primary screen, whole organism, S. cerevisiae, single point, plate reader; S. cerevisiae UUG-firefly luciferase reporter, luminescence/redox ratio; activity score, % at 18.7 µM; 0.13% of 350,000 active; AID 602363, 2012;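 active = replicate mean at a twofold rise or more, about +100% in these data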;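 also: firefly luciferase made from a UUG start codon reports start codon fidelity; reporter light over untreated wells divided by growth signal over untreated wells; some hits fall short of that in this replicate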
ERp5 block: inhibitors of ERp5-driven insulin aggregation, primary screen, biochemical, turbidity, absorbance 650 nm, single point | Protein disulfide-isomerase A6 (Homo sapiens), Q15084 | 90 min | inhibition, % at 9.99 µM | hit rate 0.05% among 350,000 | AID 651711, 2012;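 active = mean replicate inhibition above about 25%, with every replicate also reaching it, limit read from the data, passing the limit was not always enough; inconclusive = only one of those two criteria met; inactive = neither criterion met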
SMARCA2 act: SMARCA2 (BRM) function activators, primary screen, cell-based, luminescence, high throughput | AID 652017, 2013 | activation, % at 9.1 µM | MG213 cells, MMTV-luciferase reporter, dexamethasone, overnight | hit rate 1% among 370,000; in the data active = activation above about 7.8%
Rev-erbA mod: modulators of Rev-erb alpha DNA binding, primary screen, biochemical, FITC-DNA, fluorescence polarization, uHTS. activity, % at 10 µM. Nuclear receptor subfamily 1 group D member 1 (Homo sapiens), P20393. Rev-erbα–FITC-DNA binding, 90 min. hit rate 0.79% among 370,000;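 active = activity above about 14%, limit read from the data; passing the limit was not always enough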
PDI turbidity: inhibitors of human PDI, primary screen, biochemical, turbidity, single point, plate reader | Protein disulfide-isomerase (Homo sapiens), P07237 | PDI insulin aggregation turbidity, A650, 90 min | inhibition, % at 10 µM | hit rate 0.052% among 350,000 | AID 588391, 2011;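 active = mean inhibition across replicates of 30% or more, whatever share of single replicates reach that level; inconclusive = mean inhibition below 30% while every single replicate reaches 30%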
INS-1E GSIS act: GLuc luminescence reporter in INS-1E cells, primary screen for activators of glucose-dependent secretion of insulin. INS-1E GLuc reporter insulin secretion, 2-3 h. activation, % at 16.6 µM. hit rate 0.61% among 370,000. AID 743287, 2014;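 active = lowest replicate activation of at least 40%, so every replicate reaches that level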
Hits are given with their value; n = inactive; u = inconclusive; x = no result given.

SMILES	Yeast UUG start	ERp5 block	SMARCA2 act	Rev-erbA mod	PDI turbidity	INS-1E GSIS act
O=c1c(-c2ccccc2)nc2ccccc2n1C(c1ccccn1)c1nc2ccccc2[nH]1 (stereo not drawn)	x	n	n	n	x	n
CN(C)CC(=O)Nc1ccc2c(c1)C(=O)N(C)[C@H]1CC[C@H](CC(=O)Nc3cccc(Cl)c3)O[C@@H]1CO2	x	x	x	x	x	n
CCOC(=O)C1=C(COC(=O)/C=C/c2ccc(O)c(OC)c2)NC(=O)NC1C (stereo not drawn)	x	n	n	n	n	59
Cc1ccc(CNC(=O)Cn2c(=O)c3sccc3n(Cc3ccc([N+](=O)[O-])cc3)c2=O)cc1	x	x	n	n	n	42
COc1cc2ccc(C(C)=NNC(N)=S)cc2cc1OC	n	n	n	n	n	67
CCOC(=O)c1nc(SC)n(C)c1C(=O)OCC	n	n	n	n	n	54
CCOC(=O)c1c(C)c(C(=O)OCC)n(C)c1C	n	n	n	n	n	n
CCNc1nc(NCC)nc(Nn2cnnc2)n1	n	n	n	n	n	56
COc1cc(/C=C2\SC(=S)N(NS(=O)(=O)c3ccccc3)C2=O)ccc1O	n	n	n	n	41	n
CCN=C1S/C(=C\c2cc(OCC)c(O)cc2Br)C(=O)N1CC	x	x	n	n	n	n
COc1cc(/C=C2\SC(=S)N(NS(=O)(=O)c3ccc(C)cc3)C2=O)ccc1O	x	n	n	n	u	n
CCN=C1S/C(=C\c2ccc(O)c(OCC)c2)C(=O)N1CC	x	n	n	n	n	57
CCOc1cc(/C=C2\SC(=S)N(C(C(=O)O)c3ccccc3)C2=O)ccc1O (stereo not drawn)	n	n	n	n	35	n
CCOc1ccc(/C=C2/SC(=S)N(C(C(=O)O)c3ccccc3)C2=O)cc1OCC (stereo not drawn)	x	n	n	n	n	n
COc1ccc(S(=O)(=O)N(C)C[C@H]2Oc3cc(C4=CCCC4)ccc3S(=O)(=O)N([C@H](C)CO)C[C@H]2C)cc1	n	n	x	x	x	n
C[C@@H]1CN([C@@H](C)CO)C(=O)c2cc(NS(=O)(=O)c3cn(C)cn3)ccc2O[C@@H](C)CCCCO[C@H]1CN(C)C(=O)Cc1ccccc1	n	n	x	x	x	n
COC(=O)C1=C(C)N(Cc2ccc(C(F)(F)F)cc2)C(=NCc2ccccc2C(F)(F)F)NC1c1ccc(Cl)cc1 (stereo not drawn)	x	n	n	n	x	49
COC(=O)C1=C(C)N(Cc2ccc(C(F)(F)F)cc2)C(=NCc2ccccc2C(F)(F)F)NC1c1cccc(Cl)c1 (stereo not drawn)	x	n	n	n	x	242
COc1ccc(CN(C)C[C@H]2Oc3c(NC(=O)NC(C)C)cccc3C(=O)N([C@@H](C)CO)C[C@H]2C)cc1	n	n	x	x	x	n
COc1ccc(C2CC(=O)C(c3ccc(Cl)c(Cl)c3)=CN2Cc2ccccc2)cc1 (stereo not drawn)	x	n	n	n	x	x
COc1ccc(C2CC(=O)C(c3ccc(C)cc3)=CN2Cc2ccccc2)cc1 (stereo not drawn)	x	n	n	n	x	159
CC1(Cc2cc(Cl)ccc2C(F)(F)F)C(=O)Nc2ccc(OC(F)(F)F)cc21 (stereo not drawn)	n	x	x	x	n	x
CC1(Cc2cc(Cl)ccc2C(F)(F)F)C(=O)Nc2cc(C(F)(F)F)ccc21 (stereo not drawn)	n	n	n	n	n	298
CC1(Cc2cc(Cl)ccc2C(F)(F)F)C(=O)Nc2ccc(-c3ccc(F)c(Cl)c3)cc21 (stereo not drawn)	n	n	n	n	n	283
CNC(=O)C[C@H]1CC[C@@H]2[C@H](COc3ccc(NC(=O)Nc4ccc(C)cc4)cc3C(=O)N2C)O1	n	n	x	x	x	n
COc1ccc(NC(=O)C2(c3ccc(NC(=O)c4ccc(OC)cc4)cc3)CCCC2)cc1	n	x	n	n	n	98
COc1ccc(C2(C(=O)Nc3nncs3)CCCC2)cc1	n	x	n	n	n	n
CC(=O)N(C)C[C@H]1Oc2ccc(N)cc2CC(=O)N(C)C[C@H]1C	x	x	x	x	x	n
